# A selection: hits, their analogues and other compounds. The true share with any hit is near 16%.
# DT40 TDP1 no CPT = qHTS for Inhibitors of human tyrosyl-DNA phosphodiesterase 1 (TDP1): qHTS in cells in absence of CPT | Potency, µM (series often up to 46.2 µM), inactives show at the top dose activity change, negative = growth inhibition, usual class: inhibitors | DT40 Tdp1-/- hTDP1 cells, no CPT, ATP luminescence, 48 h | hit rate 15% among 420,000; note: potency is the fitted concentration of half-maximal effect; % is set by controls: 0 for no effect and ±100 for the full control effect; nearly all actives have a fitted effect of over 55% in size
#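 A cellular qHTS used chicken DT40 cells lacking endogenous Tdp1 but carrying stably transfected human TDP1. Compounds were applied without camptothecin, and cell growth kinetics were judged by ATP-dependent luminescence after ≥48 hr.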
# uPA surface inh = blocks generation of uPA at the cell surface | AID 540303 | cell surface uPA generation assay, qHTS | Potency, µM (series often up to 38.3 µM), for the others: at the highest dose activity change, negative = inhibition, hits mostly inhibitors | hit rate 0.31% among 330,000; active = well fitted inhibition curve with a large enough effect; inconclusive = small, poorly fitted or top-dose-only effect; inactive = no such curve, though single readings can be large or run the other way; tested in mouse RAW 264.7 cells; note: potency is the fitted concentration of half-maximal effect; % is set by controls: 0 for no effect and ±100 for the full control effect; nearly all actives have a fitted effect of over 55% in size
# miR-21 reporter = raises the signal of a miR-21 reporter; Potency, µM (doses to about 38.3 µM), inactives show top-dose reporter change, positive = more light; HeLa miR-21 FLuc reporter, luciferase, 48 h; AID 2288; 340,000 tested, under 10 active; active = well fitted rising curve with a large enough effect; inconclusive = small, poorly fitted or top-dose-only effect; inactive = no such curve, though single readings can be large or run the other way;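 further: % of control where 0% means no effect; miR-21 action dims this reporter so a rising signal means less miR-21 action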
#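 Compounds were titrated across several concentrations (up to approximately 40 uM) and incubated 48 hours with HeLa miR-21-FLuc reporter cells (miR-21 target sequence downstream of FLuc, endogenous miR-21). Readout was firefly luciferase luminescence after lytic detection reagent.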
# TDP1 cell CPT = growth inhibition of DT40 Tdp1-/-;hTDP1 cells with camptothecin (screen for TDP1 inhibitors); hit rate 12% among 420,000; chicken DT40 Tdp1-/-;hTDP1 cells + 20 nM CPT, ATP luminescence, 48 h; Potency, µM (series often up to 46.2 µM), for inactives: top-dose activity change, negative = growth inhibition, hits mostly inhibitors; note: potency is the fitted concentration of half-maximal effect; % is set by controls: 0 for no effect and ±100 for the full control effect; nearly all actives have a fitted effect of over 55% in size
#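 Cell growth measured by CellTiter-Glo luminescence after a minimum 48 h, 37 C compound exposure with 20 nM CPT in Tdp1-knockout DT40 cells stably expressing hTDP1, seeded 400/well; qHTS titration format.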
# TDP1 block = TDP1 (human) enzyme inhibition; Q9NUW8; recombinant TDP1, AlphaScreen DNA substrate cleavage; Potency, µM (titrated, usually from 130 µM), for the others: at the top dose activity change, negative = inhibition, hits mostly inhibitors; hit rate 0.28% among 350,000; note: potency is the fitted concentration of half-maximal effect; % is set by controls: 0 for no effect and ±100 for the full control effect; nearly all actives have a fitted effect of over 40% in size
#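 Signal: AlphaScreen proximity between streptavidin donor and anti-FITC acceptor beads on intact substrate. Reaction: Tdp1 1 nM, substrate 15 nM final, 5 min RT after 15 min compound preincubation.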
# * = called active by the depositor; u = inconclusive; x = not tested or not shown; ! = not active in a repeat; [ ] = dose if it differs, or a comment. Unless noted, calls come from the whole dose curve; as a rule, active = well fitted curve in the direction sought with a large enough effect; inconclusive = small, poorly fitted or top-dose-only effect, or another doubt; inactive = no such curve, though single readings can be large; an effect the other way counts as inactive or inconclusive.
SMILES,DT40 TDP1 no CPT,uPA surface inh,miR-21 reporter,TDP1 cell CPT,TDP1 block
O=C(Cn1ncc2c3ccccc3n(Cc3ccc(F)cc3)c2c1=O)N1CCC2(CC1)OCCO2,3.3µM*,-6%,17%,3.3µM*,5%
CCOC(=O)c1c(C=O)c2ccccc2n1Cc1ccccc1,3%,7%,4%,-2%,x
CCOC(=O)N1CCN(C(=O)Cn2ncc3c4ccccc4n(Cc4ccc(F)cc4)c3c2=O)CC1,1.8µM*,x,u,1.6µM*,5%
Cc1c2cnn(CC(=O)N3CCC4(CC3)OCCO4)c(=O)c2c(C)n1Cc1ccccc1,u,-5%,-3%,-7%,11%
CC(C(=O)O)N(C(=O)c1ccccc1)c1ccc(F)c(Cl)c1 (stereo unspecified),-10%,1%,1%,15%,0%
CCOC(=O)c1cccc(NC(=O)c2cnc(N3CCCCC3)c3ccccc23)c1,23µM*,x,16%,18µM*,5%
CCOC(=O)c1ccc(NC(=O)c2sc3nc4c(cc3c2N)N2CCC4CC2)cc1,u,x,u,-25%,-2%
Oc1ccccc1Cl,4%,-2%,x,7%,0%
Oc1ccc(O)c2c1C1(Cl)C(Cl)=C(Cl)C2(Cl)C1(Cl)Cl,16µM*,3%,x,23µM*,x
Oc1ccc2c3c1O[C@H]1c4c(c5ccccc5n4Cc4ccccc4)C[C@]4(O)[C@H](C2)N(CC2CC2)CC[C@@]314,13µM*,x,x,12µM*,20%[56.1 µM]
N[C@@H](Cc1c[nH]c2ccccc12)c1nnc(SCc2ccccc2F)o1,u,7%,-13%,-19%,12%
Cc1ccccc1CCNCc1cc2cccc(C)c2[nH]c1=O,16µM*,10%,0%,16µM*,-8%
N[C@@H](Cc1ccc(Oc2cc(I)c(O)c(I)c2)c(I)c1)C(=O)O,-5%,x,x,14%,x
C=CCn1c(=O)c(C(=O)NCc2ccccc2)c(O)c2ccccc21,u,2%,-2%,u,x
CC(=O)N(C)C1=Nc2ccc(Cl)cc2C(c2ccccc2)=[N+]([O-])C1,u,-9%,x,0%,x
CCc1ccccc1Nc1nn2c(=O)c3ccc(C(=O)Nc4cc(C)cc(C)c4)cc3nc2s1,8.2µM*,x,-7%,8.2µM*,6%
CC(C)(C)c1ccc(OCC(=O)Nc2ccc(Cl)cc2C(=O)c2ccccc2)cc1,-78%,x,3%,u,-7%[12.3 µM]
CC(C)(C)OC(=O)N(CCc1ccccc1)Cc1ccc(OCc2cccc(NC(=O)c3ccccc3)c2)cc1,21µM*,-1%,x,u,x
Nc1ccc(C2(c3ccc(N)cc3)c3ccccc3-c3ccccc32)cc1,15%,4%,-2%,26%,8%
CCC(C=C[C@@H]1OC(=O)C=C[C@H]1C)=C[C@H](C)CC=CC(C)=C[C@@H](C)C(=O)[C@@H](C)[C@H](O)[C@@H](C)CC(C)=CC(=O)O,x,x,x,x,1.3µM*
CCCNC(=O)c1ccc2c(=O)c(O)c(-c3ccsc3)[nH]c2c1,18µM*,u,-1%,u,-4%
COc1cc(O)c(C(=O)O)c(-c2cc(O)c(O)cc2C)c1,16µM*,-9%,29%,4.6µM*,x
COc1cccc2c1O[C@H]1C(=O)CC[C@H]3CN(C)CCC231 (stereo partly specified),x,0%,x,x,x
COC(=O)C1=C(c2ccccc2)C[C@@H]2CC[C@H]1N2C(=O)NC(C)C,x,-7%,x,-16%,x
CCCNC(=O)N1[C@H]2CC[C@@H]1C(C(=O)OC)=C(c1ccc(OC(F)(F)F)cc1)C2,15µM*,-6%,x,u,1%

# Continuation:
SMILES,DT40 TDP1 no CPT,uPA surface inh,miR-21 reporter,TDP1 cell CPT,TDP1 block
COC(=O)C1=C(c2ccc(Cl)c(C(F)(F)F)c2)C[C@@H]2CC[C@H]1N2C(=O)NCCOc1ccccc1,16µM*,u,x,u,0%
COC(=O)C1=C(c2ccc(OC(F)(F)F)cc2)C[C@@H]2CC[C@H]1N2C(=O)NC(C)C,21µM*,2%,x,16µM*,0%
COC(=O)C1=C(c2ccc(Cl)c(C(F)(F)F)c2)C[C@@H]2CC[C@H]1N2C(=O)NCCO,-29%,-2%,x,-19%,0%
COC(=O)C1=C(c2ccc(OC(F)(F)F)cc2)C[C@@H]2CC[C@H]1N2C(=O)NCCOc1ccccc1,18µM*,-2%,x,23µM*,0%
CNC(=O)O/N=C/C(C)(C)S(C)=O (stereo unspecified),10%,x,x,8%,16%
COC(=O)COc1cc(Cl)c(Cl)cc1Cl,5%,x,x,17%,7%[56.1 µM]
Clc1ccccc1C(c1ccccc1)(c1ccccc1)n1cccn1,x,x,x,x,6%
COC(=O)C1=C(c2ccc(Cl)c(C(F)(F)F)c2)C[C@@H]2CC[C@H]1N2C(=O)NC1CCCCC1,21µM*,u,x,13µM*,0%
COC(=O)C1=C(c2ccc(Cl)c(C(F)(F)F)c2)C[C@@H]2CC[C@H]1N2C(=O)NCc1ccco1,21µM*,-14%,x,u,2%
O=C(Oc1ccccc1)N1CCC2(CCCN(C(c3ccccc3)c3ccccc3)C2)CC1,-13%,x,x,10%,x
CC1Oc2cc3c(-c4c(O)cc(O)c5c(O)c6c(cc45)OC(C)C(C)C6=O)c(O)cc(O)c3c(O)c2C(=O)C1C (stereo unspecified),0.12µM*,5.6µM*,u,0.016µM*,8%
Cc1cc(C)cc(NC(=O)CSc2oc(-c3cccs3)nc2S(=O)(=O)c2ccc(Br)cc2)c1,6.5µM*,x,8%,5.8µM*,-3%
COc1ccc(CN2CC=C(c3ccc(F)cc3)CC2)cc1Br,29µM*,0%,2%,u,x
O=[N+]([O-])c1ccccc1CN1CC=C(c2ccc(F)cc2)CC1,u,-3%,-19%,23µM*,x
CCN(CC)c1ccc(CN2CC=C(c3ccc(F)cc3)CC2)cc1,18µM*,-9%,3%,18µM*,10%
Cc1nc2ccccc2c(=O)n1-c1ccc(Br)cc1[N+](=O)[O-],u,4%,1%,u,1%
COc1ccc(NC(=O)C(=O)NNC(=O)C(C)Oc2ccc(Cl)cc2Cl)cc1 (stereo unspecified),u,-3%,5%,11%,8%
O=C1CC(c2ccc(F)cc2)c2c(c3ccccc3oc2=O)O1 (stereo unspecified),-5%,x,-8%,-8%,2%
CC[C@@H](CO)NC(=O)[C@H]1C=C2c3cccc4[nH]cc(c34)C[C@H]2N(C)C1,-19%,x,x,5%,5%
CCCCC/C=C\C/C=C\C/C=C\C/C=C\CCCC(=O)Nc1ccc(O)cc1,21µM*,x,8%,27µM*,0%
CCCCC/C=C\C/C=C\C/C=C\C/C=C\CCCC(=O)Nc1ccc(O)cc1C,x,x,x,x,11%
CCCCC/C=C\C/C=C\C/C=C\C/C=C\CCCC(=O)NCC(=O)O,-3%[4.12 µM],x,x,2%[4.12 µM],32µM*!

# 2 records drawn at random from those above, as already listed:
SMILES,DT40 TDP1 no CPT,uPA surface inh,miR-21 reporter,TDP1 cell CPT,TDP1 block
CCCCC/C=C\C/C=C\C/C=C\C/C=C\CCCC(=O)NCC(=O)O,-3%[4.12 µM],x,x,2%[4.12 µM],32µM*!
N[C@@H](Cc1c[nH]c2ccccc12)c1nnc(SCc2ccccc2F)o1,u,7%,-13%,-19%,12%

# Full records as entered above.
# `Cc1cc(C)cc(NC(=O)CSc2oc(-c3cccs3)nc2S(=O)(=O)c2ccc(Br)cc2)c1` as listed: DT40 TDP1 no CPT: 6.5µM*; uPA surface inh: x; miR-21 reporter: 8%; TDP1 cell CPT: 5.8µM*; TDP1 block: -3%
# `Clc1ccccc1C(c1ccccc1)(c1ccccc1)n1cccn1` as listed: DT40 TDP1 no CPT: x; uPA surface inh: x; miR-21 reporter: x; TDP1 cell CPT: x; TDP1 block: 6%
# `O=C1CC(c2ccc(F)cc2)c2c(c3ccccc3oc2=O)O1` (stereo unspecified) as listed: DT40 TDP1 no CPT: -5%; uPA surface inh: x; miR-21 reporter: -8%; TDP1 cell CPT: -8%; TDP1 block: 2%

# Compound activity from PubChem.
